Measured values as given in patent US8513187B2, “Soft protease inhibitors, and pro-soft forms thereof” (priority 2009, dated 2013).

Key:
[1] = test system: Sprague-Dawley (SD) rats; details: for maximum tolerated dose (MTD): escalating single-dose studies, Sprague-Dawley rats
[2] = test system: monkeys

C[C@H](NC(=O)[C@@H](N)CCC(=O)O)B(O)O
animals died ([1]; SD rats, 900 mg/kg single dose): three of six

C[C@H](N)C(=S)N1CCC[C@H]1B(O)O
toxicity in monkeys [2]: very toxic

CC(C)[C@H](N)C(=O)N1CCC[C@H]1B(O)O
maximum tolerated dose (MTD) [1]: 0.025 mg/kg | single dose that kills rats ([1]; rats, single dose): 0.05 mg/kg

C[C@H](N)C(=O)N1CCC[C@H]1B(O)O
maximum tolerated dose (MTD) [1]: ≥ 5 mg/kg
